Five compounds from PubChem BioAssay (NCATS) can be followed below.

Experiment [1] can be described thus: qHTS assay for small molecule agonists of the antioxidant response element (ARE) signaling pathway measured by Nrf2-dependant transcriptional activity - cell viability counter screen (AID 720653; active = well fitted curve in the direction sought with a large enough effect in the repeat runs; an effect the other way counts as inactive or inconclusive; note: % is set by controls: 0 for no effect and ±100 for the full control effect). As to conditions: ARE-bla HepG2 viability, CellTiter-Glo ATP luminescence, 16 h; stronger effect = lower value. The procedure, abridged:
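ARE-bla HepG2 cells treated with compounds for 16 h at 37C; this counter screen measures viability as intracellular ATP by CellTiter-Glo luminescence after 30 min at room temperature.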
(qHTS replaces the single test concentration by a dilution series.)

A short description of experiment [2]: qHTS Assay for Identifying Gametocytocidal Compounds (AID 743244).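 Note: % is set by controls: 0 for no effect and ±100 for the full control effect; actives lower the fluorescent signal which means gametocytes are killed.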 As to conditions: P. falciparum 3D7 stage III-V gametocytes, alamarBlue, 72 h; stronger effect = lower value.
Experiment [3] can be described thus: qHTS profiling of the MIPE4 collection as inhibitors of Plasmodium falciparum (3D7) proliferation (AID 743344; call rule not given here;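 note: scaled between DMSO vehicle wells and 0.29 µM artemisinin as full inhibition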). As to conditions: P. falciparum 3D7 in erythrocytes, SYBR Green DNA fluorescence, 72 h; at 28.5 µM (top of the series).
Experiment [4] is described as follows: qHTS profiling of the MIPE4 collection as inhibitors of Plasmodium falciparum (DD2) proliferation (AID 743345; call rule not given here). The settings on record: P. falciparum Dd2 in erythrocytes, SYBR Green DNA, 72 h; at 28.5 µM (top of the series).
Experiment [5] in a line: qHTS profiling of the MIPE4 collection as inhibitors of Plasmodium falciparum (DD2) proliferation (Rep 2) (AID 743346; call rule not given here). As to conditions: P. falciparum Dd2 in erythrocytes, SYBR Green DNA, 72 h; at 28.5 µM (top of the series).
A short description of experiment [6]: qHTS profiling of the MIPE4 collection as inhibitors of Plasmodium falciparum (HB3) proliferation (AID 743347; call rule not given here;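 note: plate controls were DMSO vehicle wells for no effect and artemisinin wells for full effect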). As to conditions: P. falciparum HB3 in erythrocytes, SYBR Green DNA, 72 h; at 28.5 µM (top of the series).
The conditions of experiment [7]: Ebola virus entry assay, green fluorescence channel.
The conditions of experiment [8]: Ebola virus entry assay, blue channel fluorescence.
A short description of experiment [9]: qHTS assay for cell viability of HEK293 cells (AID 743288). Note: % is set by controls: 0 for no effect and ±100 for the full control effect; nearly all actives have a fitted effect of over 50% in size. As to conditions: ATP luminescence (CellTiter-Glo), 18 h, stronger effect = lower value. In short, it runs like this:
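HEK293 parental, 2,000 cells/well; ≥5 h pre-incubation 37 C; pintool compound addition; 18 h, 37 C; CellTiter-Glo 30 min RT; luminescence read.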

Experiment [10] in a line: qHTS assay for cell viability of the p53RE-bla HCT-116 cell line (AID 743292). Note: % is set by controls: 0 for no effect and ±100 for the full control effect; nearly all actives have a fitted effect of over 55% in size. As to conditions: p53RE-bla HCT-116 viability, ATP luminescence, 16 h; at 95 µM (top of the series). The procedure, abridged:
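After plating at 4,000 cells per well and a 5 h rest at 37 C, HCT-116 cells carrying p53RE-bla received test chemicals in DMSO. Sixteen hours later at 37 C, CellTiter-Glo was added and luminescence recorded following 30 min at room temperature.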

Where “and” joins values, the source holds several entries; their conditions need not be identical. Equal entries are not always repeated. Only a part is listed here, and it is no random draw. Results filed as inconclusive are left out. For some of these results: Results with a measured potency or affinity are listed apart. Calls of active or inactive are those of the source.
Throughout, for efficacy: 0% is about no effect.

For the compound `CN(CCCl)CCCl`, the values for the max response in experiment [1] and in experiment [2] were inactive: -22.2% and inactive: 13.4%, respectively. In addition, the parasite growth, % of DMSO control in experiment [3] is 86.2%. Also, the parasite growth remaining, % of DMSO control (lower = more inhibition) in experiment [4] was 68.4%. In addition, the parasite growth, % of control (lower = inhibition) in experiment [5] is 118%. Besides, the growth, % of control in experiment [6] was 105%. Further, in experiment [7], the efficacy is inactive: -30.8%. In addition, the outcome in experiment [8] was inactive.

Consider `CCC(=O)N(c1ccccc1)C1(COC)CCN(CCc2cccs2)CC1`, for which the max response in experiment [2] was inactive: -15.4%. The efficacy in experiment [7] is inactive: 124%.

Take `CCC(=O)N(c1ccccc1)C1(COC)CCN(CCn2nnn(CC)c2=O)CC1`: the max response in [2] was inactive: 5.87%. Further, the efficacy in [7] was inactive: 26.7%.

As for `CCC(=O)N(c1ccccc1)C1CCN(CCc2ccccc2)CC1`, the max response in experiment [2] was inactive: 5.19%.

With `O=[N+]([O-])C(Cl)(Cl)Cl`, the max response in experiment [1] was inactive: 5.91% and inactive: -6.91%; in experiment [9] it was inactive: 0.78% and inactive: -10.1%. The activity change, negative = cytotoxicity in experiment [10] was inactive: 1.61% and inactive: 0.3%.
